Measured values reported in US20260382605A1, “REVERSIBLE MACROCYCLIC KINASE INHIBITORS” (published 2026).

Amino acid sequences for entries named in this document (tags omitted).
UniProt P06239, whole entry: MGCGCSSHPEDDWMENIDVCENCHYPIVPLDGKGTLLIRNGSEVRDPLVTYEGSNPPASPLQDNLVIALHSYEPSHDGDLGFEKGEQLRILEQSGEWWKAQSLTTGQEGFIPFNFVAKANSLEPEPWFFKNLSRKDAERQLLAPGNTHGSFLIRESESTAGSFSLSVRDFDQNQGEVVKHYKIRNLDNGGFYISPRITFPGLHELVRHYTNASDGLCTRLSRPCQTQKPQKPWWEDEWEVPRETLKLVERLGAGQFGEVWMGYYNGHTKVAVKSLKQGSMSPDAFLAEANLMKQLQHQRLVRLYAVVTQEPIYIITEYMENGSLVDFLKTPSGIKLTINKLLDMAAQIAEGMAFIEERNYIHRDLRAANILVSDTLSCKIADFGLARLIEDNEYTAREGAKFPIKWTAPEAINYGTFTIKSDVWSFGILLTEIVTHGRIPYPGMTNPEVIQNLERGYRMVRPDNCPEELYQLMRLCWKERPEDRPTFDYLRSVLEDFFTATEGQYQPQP
UniProt Q06187, whole entry: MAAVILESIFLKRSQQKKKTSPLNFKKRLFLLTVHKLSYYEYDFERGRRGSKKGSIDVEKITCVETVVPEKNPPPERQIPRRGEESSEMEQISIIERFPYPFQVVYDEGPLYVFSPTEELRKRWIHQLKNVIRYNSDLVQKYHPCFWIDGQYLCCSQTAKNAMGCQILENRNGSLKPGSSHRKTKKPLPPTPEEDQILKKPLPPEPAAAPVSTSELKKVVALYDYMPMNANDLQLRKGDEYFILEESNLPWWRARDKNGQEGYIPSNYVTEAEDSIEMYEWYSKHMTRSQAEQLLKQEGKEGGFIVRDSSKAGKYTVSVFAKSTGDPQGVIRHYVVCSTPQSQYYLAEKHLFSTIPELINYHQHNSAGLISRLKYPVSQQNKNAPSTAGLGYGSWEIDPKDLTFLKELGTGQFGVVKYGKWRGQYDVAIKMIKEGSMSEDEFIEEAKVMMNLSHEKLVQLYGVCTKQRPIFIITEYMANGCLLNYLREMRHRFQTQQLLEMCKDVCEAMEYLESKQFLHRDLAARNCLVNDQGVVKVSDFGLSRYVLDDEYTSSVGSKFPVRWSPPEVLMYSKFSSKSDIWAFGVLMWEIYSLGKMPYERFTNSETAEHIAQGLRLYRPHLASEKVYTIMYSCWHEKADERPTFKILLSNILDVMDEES

How the values were obtained:
[1] = tested on: KG-1 acute myeloid leukemia cells; test: Cell proliferation assay KG-1; details: read-out: IC50 value, KG-1 cells, 72 hours
[2] = target: LCK (Homo sapiens, UniProt P06239); test: Biochemical kinase assay LCK (IMAP); details: read-out: IC50 value; LCK 2.9 nM, 4 μM ATP, 1 h pre-incubation, 2 h reaction
Experimental: Biochemical Kinase Assay LCK
To determine the inhibitory activity of compounds on LCK enzyme activity, the IMAP® assay (Molecular Devices) was used. Compounds were serially diluted in dimethylsulfoxide (DMSO) and subsequently in 4% DMSO in IMAP reaction buffer, which consists of 10 mM Tris-HCl, pH 15 7.5, 10 mM MgCl2, 0.01% Tween-20, 0.1% NaN3 and 1 mM freshly prepared dithiotreitol (DTT). Compound solution was mixed with an equal volume of full-length Lck enzyme (Carna Biosciences, cat. no. 08-170) in IMAP reaction buffer. After pre-incubation of 1 hour in the dark at room temperature, fluorescein-labeled MBP-derived substrate peptide (Molecular Devices, cat. no. RP 7123) was added, followed by ATP to start the reaction. Final enzyme concentration was 2.9 nM final substrate concentration 100 nM, and final ATP concentration was 4 μM. The reaction was allowed to proceed for 2 hours at room temperature in the dark. The reaction was stopped by quenching with IMAP progressive binding solution according to the protocol of the manufacturer (Molecular Devices). Fluorescein polarization was measured on an Envision multimode reader (Perkin Elmer, Waltham, MA, U.S.A.). IC50 were calculated using XLfit™5 software (ID Business Solutions, Ltd., Surrey, U.K.).

[3] = target: BTK (Act) (Homo sapiens, UniProt Q06187); test: Binding kinetics assay (surface plasmon resonance) wt-BTK; details: SPR, 22 °C
Source text: Binding Kinetics Assay wt-BTK, BTK C481S, LCK, FGFR1, FLT3, PDGFR-β, FMS, LYN, MEK1, AUR-B. ITK. VEGFR, EGFR, FGFR3, AXL, c-MET, SRC, YES, ABL, RET and IGFR1 (Surface Plasmon Resonance)
Streptavidin-coated chips (Cat. No. BR100531), disposables and maintenance kits for Biacore were purchased from Cytiva (Eindhoven, The Netherlands). Biotinylated wt-BTK enzym (Carna Biosciences, cat. no. 08-480-20N), BTK C481S (Carna Biosciences, cat. no. 08-417-20N), LCK (Carna Biosciences, cat. no. 08-470-20N), FGFR1 (Carna Biosciences, cat. no. 08-435-20N), FLT3 (Carna Biosciences, cat. no. 08-454-20N), PDGFR-β (Carna Biosciences, cat. no. 08-458-20N), FMS (Carna Biosciences, cat. no. 08-455-20N), LYN (Carna Biosciences, cat. no. 08-471-20N), MEK1 (Carna Biosciences, cat. no. 07-441-10-20N), AUR-B (Carna Biosciences, cat. no. 05-402-21N), ITK (Carna Biosciences, cat. no. 08-481-20N), VEGFR (Carna Biosciences, cat. no. 08-491-20N), EGFR (Carna Biosciences, cat. no. 08-415-20N), FGFR3 (Carna Biosciences, cat. no. 08-433-20N), AXL (Carna Biosciences, cat. no. 08-407-20N), c-MET (Carna Biosciences, cat. no. 08-451-20N), SRC (Carna Biosciences, cat. no. 08-473-20N), YES (Carna Biosciences, cat. no. 08-475-20N), ABL (Carna Biosciences, cat. no. 08-401-20N), RET (Carna Biosciences, cat. no. 08-459-20N) or IGFR1 (Carna Biosciences, cat. no. 08-441-20N) were immobilized on a streptavidin-coated chip to a level of about 8000 resonance units (RU) using Biacore buffer (50 mM Tris pH 7.5, 0.05% (v/v) Tween-20, 150 mM NaCl and 5 mM MgCl2)+1 mM TCEP. Remaining streptavidin was blocked with biocytin. Immobilization was performed at 4 °C. Subsequent assay steps were conducted at 22 °C. After changing buffer to Biacore buffer with 1% (v/v) dimethylsulfoxide (DMSO), a pre-run was performed for a period of at least 30 min at a flow rate of 30 μl/min to obtain a stable surface. The kinetic constants of the compounds were determined with single cycle kinetics with five consecutive injections with an increasing compound concentration with ranges of 3.16-316 nM. Experiments were performed with an association time of 100 s per concentration and a dissociation time of 1200 s, except for compounds with a long target residence time, such as irreversible inhibitors, where dissociation time was increased. To circumvent problems of mass transport limitation, a flow rate of 30 μl/min was used. A blank run with the same conditions was performed before the compound was injected. The SPR sensorgrams were analyzed with Biacore Evaluation Software by using a method of double referencing. First the reference channel was subtracted from the channel containing immobilized protein. Subsequently, the reference curve obtained with buffer injections was subtracted. The resulting curve was fitted with a 1:1 binding model. Compounds that bound according to an induced fit model were fitted with a two-state reaction model. The kinetic constants (ka, […], KD) of duplicates were geometrically averaged. Target residence time (τ) for the 1:1 binding model was calculated from the dissociation constant kd with the formula T=1/kd. Target residence for an induced fit model was calculated as described (Tummino and Copeland, 2008).

| SMILES | IC50 [1] | IC50 [2] | Target residence time Tau (τ) [3] |
| --- | --- | --- | --- |
| CC(C)(C)c1cc(NC(=O)Cc2ccc(-c3nc4n5c(cnc(N)c35)/C=C/CCOCCC(=O)N[C@@H]3CCC[C@@H]4C3)cc2)no1 | < 300 nM | – | – |
| Nc1ncc2c3c1c(-c1ccc(C(=O)Nc4cc(C(F)(F)F)ccn4)cc1)nn3[C@@H]1CCC[C@H](C1)NC(=O)[C@H]1CN(C/C=C/2)CCN1 | – | < 5 nM | C (τ 3 h) |
